Screens deposited in PubChem by National Center for Advancing Translational Sciences (NCATS).
Nrf2 activator: Nrf2 pathway activation; AREc32 ARE-luciferase reporter (MCF7-derived line), luminescence, 24 h; Potency, µM (doses to about 46.1 µM), without a hit: at the top dose activation, usual class: activators; 410,000 compounds, 0.31% hits; AID 624171; note: potency is the fitted concentration of half-maximal effect; % of control where 0% means no effect; nearly all actives have a fitted effect of over 65% in size
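Nrf2 activation is followed as ARE-luciferase induction in the AREc32 line after one day of compound treatment; luminescence is read with Steady-Glo.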
miR-21 reporter: miR-21 reporter, rising signal. HeLa miR-21 FLuc reporter, luciferase, 48 h. Potency, µM (highest dose often 38.3 µM), for the others: at the highest dose reporter change, positive = more light. 340,000 tested, under 10 active. AID 2288; active = well fitted rising curve with a large enough effect; inconclusive = small, poorly fitted or top-dose-only effect; inactive = no such curve, though single readings can be large or run the other way;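 further: % of control where 0% means no effect; miR-21 action dims this reporter so a rising signal means less miR-21 action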
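Using DMEM plus 10% FBS, HeLa miR-21-FLuc cells are incubated with test compounds (final up to about 40uM) for 48 hours; firefly luciferase signal is then imaged following reagent-mediated lysis.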
A549 tox: kills or reduces viability of A549 cells in Nrf2 counter-screen; A549 ARE-Fluc cells, CellTiter-Fluor viability, 18-24 h; Potency, µM (highest dose often 46 µM), inactives show at the highest dose activity change, negative = cytotoxicity, usual class: inhibitors; 390,000 compounds, 0.16% hits; note: potency is the fitted concentration of half-maximal effect; % is set by controls: 0 for no effect and ±100 for the full control effect
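A549 ARE-Fluc cells in 5% FBS OPTI-MEM, 5000 cells/well, rested 2 h then exposed to compounds in concentration-response for 18-24 h at 37 °C. Viability by CellTiter-Fluor fluorescence (Ex 405/Em 525) after 30 min; luciferase luminescence (BugLite, 15 min, RT) read afterwards.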
Nrf2 inh: inhibitors of Nrf2 signaling; A549 ARE-Fluc reporter, luciferase luminescence, 18-24 h; Potency, µM (top dose mostly 46 µM), inactives show top-dose activity change, negative = inhibition, usual class: inhibitors; 360,000 compounds, 2.1% hits; AID 504444; note: potency is the fitted concentration of half-maximal effect; % is set by controls: 0 for no effect and ±100 for the full control effect; nearly all actives have a fitted effect of over 60% in size
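Nrf2 function is reported as luminescence of an ARE-controlled luciferase in A549 cells. Compounds were tested at several concentrations, and a CellTiter-Fluor read on the same wells flagged cytotoxicity.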
ClpP mod: qHTS Assay for Activators of ClpP; Potency, µM (top dose mostly 57.5 µM), for the others: at the highest dose activity change, negative = active; ATP-dependent Clp protease proteolytic subunit (Bacillus subtilis (strain 168)), P80244; 340,000 compounds, 1.9% hits; purified B. subtilis ClpP, FRET peptide cleavage, 20 min; active = well fitted falling curve with a large enough effect; inconclusive = small, poorly fitted or top-dose-only effect; inactive = no such curve, though single readings can be large or run the other way; note: potency is the fitted concentration of half-maximal effect; the source files actives as falling curves though it sought activators and does not explain the sign; nearly all actives have a fitted effect of over 65% in size
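FRET quenching reversal measured ClpP activation: 10 microg/mL B. subtilis ClpP at pH 8 with the FRET-FV decapeptide, read at 430 nm after 320 nm excitation. The 20-min minus 0-min signal was scaled between DMSO/no-enzyme wells and ADEP (5.8 microM final).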
p53 reactivation: restores transcriptional activity of mutant p53 | H1299 p53-A138V BP100-luciferase reporter, luminescence, 24 h | 320,000 compounds, 0.063% hits | AID 504706 | Potency, µM (doses to about 92.2 µM), inactives show top-dose activity change, positive = activation, actives largely listed as activators; note: potency is the fitted concentration of half-maximal effect; % of control where 0% means no effect; nearly all actives have a fitted effect of over 45% in size
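p53-null H1299 cells stably carrying temperature-sensitive p53-A138V and a BP100-luciferase reporter were pinned with compounds (4-point, 1:5 series) and held 24 hrs at 37 deg C. Luminescence was read 10 min after detection reagent.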
* = called active by the depositor. In the library only some 3.7% were active in any assay of this set; here they are far more common. Unless noted, calls come from the whole dose curve; as a rule, active = well fitted curve in the direction sought with a large enough effect; inconclusive = small, poorly fitted or top-dose-only effect, or another doubt; inactive = no such curve, though single readings can be large; an effect the other way counts as inactive or inconclusive.

CN(C)/C=N/C1=C(C#N)C(c2cccs2)c2ccc3ccccc3c2O1 (stereo not given) was read as Nrf2 activator 8.9µM*, miR-21 reporter -17%, A549 tox inconclusive, Nrf2 inh inconclusive and p53 reactivation 16%.
`COc1ccccc1C(=O)NC1=NC(c2ccc(Br)cc2)CC(=O)N1` (stereo not given) gave Nrf2 activator 15%, miR-21 reporter -78%, A549 tox -4%, Nrf2 inh inconclusive and ClpP mod 32µM*.
`Cc1ccc(C(=O)NC2=NC(c3ccc(C)cc3)CC(=O)N2)cc1` (stereo not given) gave Nrf2 activator 0%, miR-21 reporter 1%, A549 tox 15%, Nrf2 inh 7% and ClpP mod -3%.
`CCO[C@H]1OC(C(=O)N2CCN(Cc3ccccc3)CC2)=C[C@@H](c2ccc(C(F)(F)F)cc2)[C@@H]1CCCO` gave Nrf2 activator 0%, miR-21 reporter inconclusive, A549 tox inconclusive, Nrf2 inh 29µM*, ClpP mod -1% and p53 reactivation 0%.
Screening O=S(=O)(c1ccc(Cl)cc1)c1nnn2c1nc(NCc1cccs1)c1sccc12 returned Nrf2 activator -1%, miR-21 reporter -18%, A549 tox 3%, Nrf2 inh -5% and ClpP mod inconclusive.
Screening CCN(CCCNC(=O)c1cc2c(=O)[nH]c3ccc(C)cc3c2s1)Cc1ccccc1 returned Nrf2 activator 26%, miR-21 reporter inconclusive, A549 tox inconclusive, Nrf2 inh 15% and ClpP mod 14µM*.
For CCCN(CCC)C(=O)c1cc2c(=O)[nH]c3ccc(C)cc3c2s1 the results were Nrf2 activator -1%, miR-21 reporter -6%, A549 tox -22%, Nrf2 inh 18µM*, ClpP mod 3% and p53 reactivation 1%.
For CCN(CC)CCNC(=O)c1cc2c(=O)[nH]c3ccc(C)cc3c2s1 the results were Nrf2 activator 0%, miR-21 reporter -5%, A549 tox 2%, Nrf2 inh 0% and ClpP mod inconclusive.
`CC(=O)c1c(C)oc2ccc(NS(=O)(=O)c3ccc(C(C)C)cc3)cc12` gave Nrf2 activator 4%, miR-21 reporter 17%, A549 tox -4%, Nrf2 inh 13µM* and ClpP mod 3%.
Screening O=C(NCC(c1ccco1)N1CCCCC1)c1ccc(COc2ccc(Cl)cc2)cc1 (stereo not given) returned Nrf2 activator 8%, A549 tox inconclusive and Nrf2 inh inconclusive.
Screening Cc1ccc(S(=O)(=O)N2CCN(CCc3ccccc3)CC2)c(C)c1 returned Nrf2 activator 2%, miR-21 reporter 9%, A549 tox -2%, Nrf2 inh 18µM*, ClpP mod -1% and p53 reactivation 7%.
`Cc1ccc(S(=O)(=O)N2CCN(C(=O)CSC3CCCC3)CC2)c(C)c1` gave Nrf2 activator -1%, miR-21 reporter 11%, A549 tox -12%, Nrf2 inh 26µM*, ClpP mod -2% and p53 reactivation -8%.
Screening CC(=O)NC(CC(=O)OCC(=O)N1CCN(S(=O)(=O)c2ccc(Cl)cc2)CC1)c1ccccc1 (stereo not given) returned Nrf2 activator 0%, A549 tox 0%, Nrf2 inh -15%, ClpP mod -1% and p53 reactivation 5%.
CC(=O)NC(CC(=O)OCC(=O)N1CCN(S(=O)(=O)c2ccc(C)cc2C)CC1)c1ccccc1 (stereo not given) was read as Nrf2 activator 1%, A549 tox 4%, Nrf2 inh 21µM*, ClpP mod -3% and p53 reactivation 1%.

In the list so far, 2 have a furan ring, fused or not.
`CC(=O)c1c(C)oc2ccc(NS(=O)(=O)c3ccc(C(C)C)cc3)cc12` gave Nrf2 activator 4%, miR-21 reporter 17%, A549 tox -4%, Nrf2 inh 13µM* and ClpP mod 3%.
Screening O=C(NCC(c1ccco1)N1CCCCC1)c1ccc(COc2ccc(Cl)cc2)cc1 (stereo not given) returned Nrf2 activator 8%, A549 tox inconclusive and Nrf2 inh inconclusive.
